Measured values reported in PMC5527967 (The Prostate, 2017).

The chains behind the UniProt entries cited, without tags or fusion partners. Where a name states a change or a piece, a line headed by the entry shows the natural chain unless it says otherwise.
UniProt P42338: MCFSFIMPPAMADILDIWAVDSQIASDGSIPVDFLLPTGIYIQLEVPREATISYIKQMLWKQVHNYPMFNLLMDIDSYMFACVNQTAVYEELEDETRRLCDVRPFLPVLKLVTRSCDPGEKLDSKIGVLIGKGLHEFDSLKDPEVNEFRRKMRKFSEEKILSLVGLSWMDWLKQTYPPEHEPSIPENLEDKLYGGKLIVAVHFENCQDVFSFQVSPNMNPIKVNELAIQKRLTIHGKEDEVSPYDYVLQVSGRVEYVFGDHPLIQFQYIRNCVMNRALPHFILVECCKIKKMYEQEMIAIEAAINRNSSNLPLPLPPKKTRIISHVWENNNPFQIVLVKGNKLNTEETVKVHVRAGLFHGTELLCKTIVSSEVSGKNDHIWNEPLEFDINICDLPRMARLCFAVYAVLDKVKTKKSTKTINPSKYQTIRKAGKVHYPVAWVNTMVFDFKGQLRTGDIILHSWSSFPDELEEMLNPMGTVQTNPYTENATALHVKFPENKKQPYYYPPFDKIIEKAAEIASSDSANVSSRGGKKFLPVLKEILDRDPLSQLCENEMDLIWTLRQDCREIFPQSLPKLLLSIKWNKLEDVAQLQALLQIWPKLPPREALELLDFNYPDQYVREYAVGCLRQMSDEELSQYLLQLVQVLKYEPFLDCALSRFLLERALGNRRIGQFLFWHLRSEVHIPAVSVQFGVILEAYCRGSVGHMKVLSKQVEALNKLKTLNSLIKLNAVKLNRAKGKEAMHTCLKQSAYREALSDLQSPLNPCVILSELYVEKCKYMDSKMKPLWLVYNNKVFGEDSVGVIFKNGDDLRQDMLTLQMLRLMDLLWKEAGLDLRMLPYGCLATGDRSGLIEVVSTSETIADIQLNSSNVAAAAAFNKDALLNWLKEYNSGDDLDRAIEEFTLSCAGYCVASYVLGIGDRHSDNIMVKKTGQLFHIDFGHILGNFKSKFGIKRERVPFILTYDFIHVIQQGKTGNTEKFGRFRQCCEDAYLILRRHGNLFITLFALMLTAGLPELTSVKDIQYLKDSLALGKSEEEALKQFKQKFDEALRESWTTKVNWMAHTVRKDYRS

Biological target: human p110β/p85α (Homo sapiens, UniProt P42338)
Experiment: Kinase-Glo Plus luminescent kinase assay
Format: biochemical
Settings: read-out: IC50 p110β; 2 μM ATP, 37°C, 2 h

Cc1cc(C(C)Nc2ccccc2)c2nc(N3CCOCC3)cc(=O)n2c1 (stereo not shown) [TGX221] showed an IC50 of 4.81 nM.
